Assay results: PubChem BioAssay AID1439 (NMMLSC, 2008)
This is a selection; strong and weak results do not stand in their true shares. Results filed as inconclusive are left out. Active and inactive are the calls of the source. No stated cut-off is given here; in the data, active means binding response below about 49% or above about 150%; inconclusive means no clear call, values can overlap the other calls; inactive means in between.

The chains behind the UniProt entries cited, without tags or fusion partners.
UniProt P09471, whole entry, looked up: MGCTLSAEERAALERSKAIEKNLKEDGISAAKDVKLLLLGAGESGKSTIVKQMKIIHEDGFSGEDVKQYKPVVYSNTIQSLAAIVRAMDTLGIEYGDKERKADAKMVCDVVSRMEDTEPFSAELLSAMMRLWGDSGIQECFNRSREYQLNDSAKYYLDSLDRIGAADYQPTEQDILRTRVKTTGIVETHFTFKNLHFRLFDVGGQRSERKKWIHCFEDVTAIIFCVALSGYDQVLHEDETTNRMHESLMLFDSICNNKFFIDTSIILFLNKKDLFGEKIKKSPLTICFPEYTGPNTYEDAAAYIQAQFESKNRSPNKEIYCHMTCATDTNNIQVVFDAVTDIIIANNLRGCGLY

The compounds below were run against Guanine nucleotide-binding protein G(o) subunit alpha (Homo sapiens) (UniProt P09471) (assay: RGS7-Galphao binding modulators, primary screen, biochemical, multiplexed bead flow cytometry (AID 1439;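 further: fluorescent Galphao held in activated GDP-AlF4 state binding bead-coupled RGS7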)). Details: at 10 µM, actives lie on both sides.

SMILES	binding response (% of control)
Cc1cccc(OCC(=O)OC2CN3CCC2CC3)c1 (centres undefined)	inactive: 95.6%
COc1cc(C(=O)NCC2(N3CCOCC3)CCCCC2)cc(Cl)c1OC(C)C	inactive: 104%
COc1cc(C2NCCC3(OCCO3)C2(C)C)cc(OC)c1OC (centres undefined)	inactive: 119%
CCOP(=O)(Nc1cccc2ccccc12)OCC	inactive: 101%
Cc1ccc(NCCc2c([N+](=O)[O-])cc([N+](=O)[O-])cc2[N+](=O)[O-])cc1	inactive: 88.9%
CCOP1(=S)c2c(C)nn(CCC#N)c2N=C(c2ccccc2F)N1C (centres undefined)	inactive: 101%
O=P(Nc1nccs1)(Oc1ccccc1)Oc1ccccc1	inactive: 91.8%
O=P(Nc1nccs1)(c1ccccc1)c1nc2ccccc2s1 (centres undefined)	inactive: 103%
CCOP1(=S)c2c(C)nn(CCC#N)c2N=C(c2ccc(F)cc2)N1C (centres undefined)	inactive: 103%
O=[N+]([O-])c1ccc2c(c1)nnn2O	inactive: 108%
CN(C)C1(CNC(=O)c2ccc(S(C)(=O)=O)cc2)CCCCC1	inactive: 99.6%
Cc1nn(-c2ccccc2)c2c1P(=O)(N1CCOCC1)N(C)C(c1ccccc1)=N2 (centres undefined)	inactive: 105%
CC1CCC(C(C)C)C(OP(=O)(Nc2ccccn2)c2ccccc2)C1 (centres undefined)	inactive: 97.9%
Cc1ccc(OCC(=O)OC2CN3CCC2CC3)cc1 (centres undefined)	inactive: 99.8%
O=P1(Nc2ccc(Br)cn2)COc2ccccc2OC1	inactive: 103%
O=P1(Nc2ncccn2)COc2ccccc2OC1	inactive: 99.8%
Clc1n[nH]nc1-c1nn[nH][15n]1	inactive: 99.1%
O=P1(Nc2ccccn2)COc2ccccc2OC1	inactive: 101%
CC(C)/C=N\N=C(\N)N[N+](=O)[O-]	inactive: 90.7%
CN(C(=O)Cc1ccc(Cl)c(Cl)c1)[C@@H]1CCCC[C@H]1N1CCCC1	inactive: 94.2%
O=C(COc1ccccc1)OC1CN2CCC1CC2 (centres undefined)	inactive: 99.6%
COP1(=S)c2c(C)nn(CCC#N)c2N=C(c2ccc(F)cc2)N1C (centres undefined)	inactive: 97.6%
CCC(C)N(CC(C)C)C(=S)SC(NC(C)=O)C(Cl)(Cl)Cl (centres undefined)	inactive: 102%
Cc1cc(SC(NC(=O)c2ccccc2)C(Cl)(Cl)Cl)nc(C(C)C)n1 (centres undefined)	inactive: 105%
Cc1ccc2nc3c(c(C)c2c1)CC(C(Cl)Cl)S3 (centres undefined)	inactive: 107%
CCN(CC)C(=S)SC(NC=O)C(Cl)(Cl)Cl (centres undefined)	inactive: 99.1%
O=[N+]([O-])c1cc([N+](=O)[O-])c(-c2ccn[nH]2)s1	inactive: 99.3%
ClCCSc1nnc(-c2cccnc2)o1	inactive: 102%
COc1ccc2nc(NP(=O)(c3ccccc3)c3ccccc3)sc2c1	inactive: 100%
